{"source": "patent US20210402002A1", "about": "“CONJUGATE” (priority 2018, published 2021)", "key": {"[1]": {"test_system": "HER2", "experiment": "Inhibition of HER2 glycoprotein N-glycosylation in SKBR-3 cells (SDS-PAGE, anti-HER2 immunoblot)", "format": "cell-based, human", "conditions": "six days' incubation, read-out: EC50 (concentration with 50% efficacy) of decrease of relative MW of HER2, defective N-glycosylation", "description": "After six days' culture, the cells were lysed and samples from each treatment were subjected to SDS-PAGE and immunoblotting with anti-HER2 antibody (anti-human ErbB2/Her2 goat polyclonal antibody AF1129, R&D Systems) with standard procedures."}, "[2]": {"test_system": "NCI-N87 cancer cell line tumors", "experiment": "In vivo efficacy trial, tumors on chicken egg chorioallantoic membrane (CAM)", "conditions": "day E18, trastuzumab and tunicamycin-ADC single dose 2.5 mg/kg, pembrolizumab […] five doses, PBS control 32.2", "procedure": "The study was performed by Inovotion SAS (La Tronche, France) as follows: Fertilized chicken eggs were incubated at 37.5° C. with 50% relative humidity for 9 days (E9), when the chorioallantoic membrane (CAM) was dropped down by drilling a small hole through the eggshell into the air sac, and a 1 cm^2 window was cut in the eggshell above the CAM. The NCI-N87 cell line was cultivated in RPMI-1640 medium supplemented with 10% FBS and 1% penicillin/streptomycin. On day E9, cells were detached by trypsin, washed with complete medium and suspended in graft medium. An inoculum of 2 million cells was added onto the CAM of each egg. On day 10 (E10), tumors began to be detectable. […] On day 18 (E18) the upper portion of the CAM was removed, washed in PBS and then directly transferred in PFA (fixation for 48 h). The tumors were then carefully cut away from normal CAM tissue and weighed. Eggs were checked at each treatment time, or at least every two days, for viability during the study. At the end of the study, the number of dead embryos was counted and combined with the observation of eventual visible macroscopic abnormalities (observation done during the sample collection) to evaluate the toxicity."}, "[3]": {"test_system": "SKBR-3 breast cancer cells", "experiment": "SNA-I lectin FACS of SKBR-3 cells incubated with glycosylation inhibitor-ADCs", "format": "cell-based", "conditions": "for SNA-I staining (cell surface sialylation): 500 nM ADC", "procedure": "SKOV-3 ovarian carcinoma cells (ATCC, Manassas, Va., USA) were cultured according to ATCC's instructions and incubated in the presence of either 50 μM 2-acetamido-2,4-dideoxy-4-fluoro-1,3,6-tri-O-acetyl-D-glucose for 4 days (β-4-F-GlcNAc; Sussex Research, Ottawa, Canada), 100 μM 5-acetamido-3,5-dideoxy-3-fluoro-2,4,7,8,9-penta-O-acetyl-D-erythro-L-manno-2-nonulosonic acid methyl ester (β-3-Fax-Neu5Ac; Tocris Bioscience, Abingdon, United Kingdom) for 3 days, or DMSO carrier control in parallel. After the incubation, cells were stained with fluorescein-labeled lectins SNA-I-FITC for α2,6-sialylation, LEA-FITC for poly-N-acetyllactos-amines (both from EY Labs, San Mateo, Calif., USA), Alexa Fluor 488-conjugated human recombinant Galectin-1, and Alexa Fluor 488-conjugated human recombinant Galectin-3 (both from Abcam, Cambridge, United Kingdom). Cells were washed and stored on ice in the dark until analysed by FACSAriaII flow cytometer.\nSKBR-3 breast cancer cells (ATCC) were cultured in recommended conditions and incubated with glycosylation inhibitors and ADCs as described above. The cells were then subjected to labeling with SNA-I lectin and FACS analysis as described above."}, "[4]": {"test_system": "SKBR-3 cells", "experiment": "ADCC assay (LDH cytotoxicity) with SKBR-3 cells pre-incubated with glycosylation inhibitors", "format": "cell-based", "procedure": "(§1) SKBR-3 and SKOV-3 cells were cultured on 96-well plates in recommended conditions and incubated with or without glycosylation inhibitors or ADCs for four days as described above. […] After 3.5 h at +37° C., cytotoxicity was assessed with commercial lactate dehydrogenase assay kit (Cytotoxicity detection kit (LDH), Thermo Fischer Scientific) and the cytotoxicities were calculated as proportion of killed cells (%, average of three parallel wells)."}, "[5]": {"test_system": "SKOV-3 cells", "experiment": "ADCC assay (LDH cytotoxicity) with SKOV-3 cells pre-incubated with glycosylation inhibitors", "format": "cell-based", "conditions": "SKOV-3, trastuzumab without both inhibitor and effector cells", "procedure": "as §1"}, "[6]": {"test_system": "SKBR-3 cells", "conditions": "five or eight days, up to 1 μM"}}, "note": "Entries after “also recorded” stand apart in the source; their conditions may differ."}
{"substance": "trastuzumab-MC-VC-PAB-DMAE-tunicamycin DAR=8 ADC: DAR=8 conjugate of MC-VC-PAB-DMAE-tunicamycin V prepared from trastuzumab", "values": [{"measurement": "EC50", "setting": "[1]", "result": 40, "unit": "nM"}, {"measurement": "Mean tumor size", "setting": "[2]", "result": 22.1, "unit": "mg"}]}
{"substance": "trastuzumab-MC-VC-PAB-3Fax-Neu5N, DAR=4-8", "values": [{"measurement": "SNA-I staining (cell surface sialylation)", "setting": "[3]; four days (figure legend)", "result": "staining dropped"}, {"measurement": "SNA-I staining (cell surface sialylation)", "setting": "[3]; three days (Example 14 text)", "result": "reduced staining"}]}
{"substance": "trastuzumab: anti-HER2 antibody Trastuzumab (Herceptin, Roche)", "values": [{"measurement": "cytotoxicity (proportion of killed cells)", "setting": "[4]; first assay, SKBR-3, without inhibitors, 1 μg/ml trastuzumab and effector cells applied", "result": 13.2, "unit": "%"}, {"measurement": "cytotoxicity (proportion of killed cells)", "setting": "[4]; second assay, SKBR-3, trastuzumab without both inhibitor and effector cells", "result": "no cytotoxicity was observed"}, {"measurement": "cytotoxicity (proportion of killed cells)", "setting": "[4]; second assay, SKBR-3, without inhibitors, trastuzumab and effector cells applied", "result": "about 12%"}, {"measurement": "absorbance reading in the cytotoxicity assay", "setting": "[4]; third assay, SKBR-3, without the inhibitor, trastuzumab and effector cells applied", "result": "below 0.6"}, {"measurement": "cytotoxicity (proportion of killed cells)", "setting": "[5]", "result": "no cytotoxicity was observed"}, {"measurement": "Mean tumor size", "setting": "[2]", "result": 17.5, "unit": "mg"}, {"measurement": "cytotoxicity to the cells in the viability assay", "setting": "[6]", "result": "only modest cytotoxicity"}]}
{"substance": "Trastuzumab-MC-VC-PAB-DMAE-kifunensine, DAR=4-8: trastuzumab conjugated via reduced hinge cysteines to MC-VC-PAB-DMAE-kifunensine", "values": [{"measurement": "SNA-I staining (N-glycosylation-associated cell surface sialylation)", "setting": "[3]; 10 nM ADC, four days", "result": "staining dropped; also recorded: reduced staining"}]}
